The numbers were not newly measured in US8993117B2, “Devices with multiple surface functionality” (The Trustees of Princeton University, priority 2005, dated 2015), which cites them from elsewhere.

For this series the following is noted: cited from earlier work.

B1: bone morphogenic protein-2 (BMP-2): titanium surfaces merely coated with BMP-2 (protein, UniProt P12643 283-396, looked up)
Bone morphogenetic protein 2: QAKHKQRKRLKSSCKRHPLYVDFSDVGWNDWIVAPPGYHAFYCHGECPFPLADHLNSTNHAIVQTLVNSVNSKIPKACCVPTELSAISMLYLDENEKVVLKNYQDMVVEGCGCR
Consider B1, for which the “In vivo outcome of merely coated surface (in words)” value is given as “encapsulation of the surface by fibrous tissue”.
